This note sets out measurements from patent US10092517B2, “Gelated microparticle suitable for oral delivery of therapeutic peptides to the lower intestine” (Insucaps Limited, priority 2015, dated 2018).

The test system of the data set is Caco-2 cells. In words: Transport permeability of BD, free and encapsulated, through Caco-2 cells. Type of data set: in vitro ADME. The settings on record: transport of BD relative to free BD. (In general: Passage across Caco-2 layers is used to estimate intestinal permeability.)

On to Blue Dextran [Free BD], for which the R is listed as 1.001.
